## Yeast mating assay 1: variants of the scFv Ab-14

Target peptide (SARS-CoV-2 spike, HR2 region): PDVDLGDISGINAS

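Phage display of a naive human antibody library on the peptide gave the parent. Variants in AAYL49 differ from the parent at up to three CDR positions; double and triple changes were sampled at random. AlphaSeq pools MATa yeast showing the antibodies with MATalpha yeast showing the peptide. After mating in shaken culture at 30 °C for 16 h, diploids were selected and their barcode pairs sequenced. The ratio of observed to expected reads was calibrated, replicate by replicate, on BCL2-family standards whose Kd was known from biolayer interferometry. There are three technical replicates.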

Parent: Ab-14, a human scFv built as VH, a (GGGGS)3 linker, VL. Only the CDRs of the heavy chain vary.
VH: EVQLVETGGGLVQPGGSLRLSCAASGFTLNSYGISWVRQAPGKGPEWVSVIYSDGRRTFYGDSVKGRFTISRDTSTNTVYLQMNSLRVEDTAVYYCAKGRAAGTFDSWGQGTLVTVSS
VL: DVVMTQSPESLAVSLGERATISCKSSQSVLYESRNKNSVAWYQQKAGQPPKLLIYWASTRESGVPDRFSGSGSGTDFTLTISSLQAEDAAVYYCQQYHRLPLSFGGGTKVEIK

Each variant is given by its three heavy chain CDRs, as the data file delimits them; those of the parent are GFTLNSYGIS, VIYSDGRRTFYGDSVK, GRAAGTFDS. Scale: log10 of Kd in nM, estimated from mating counts; low values are strong binders. "nd" marks a missing value. The strain was present, yet no cells mated with the target were sequenced in that replicate, which points to weak or no binding. Parent in this assay: reference entry 0.65, copy in this library 4.11 (one replicate of three). Empty control strains, which show no peptide, gave a signal in 15% of pairings with library AAYL49; the median was 4.06 and 95% of these signals were weaker than 2.83. No background was subtracted. For each scFv, signals with the empty controls are counted beside the result, with their mean in brackets.

{"CDR-H1": "GFTLYSYGIS", "CDR-H2": "VIYSDGRCTFYGDSVK", "CDR-H3": "GRAAGTFDD", "replicates, log10 nM": "nd / nd / nd", "control signals": "0/9"}
{"CDR-H1": "GFTLYSYGIS", "CDR-H2": "VIYSDGRRTFYGDSVK", "CDR-H3": "GRRPGTFDS", "replicates, log10 nM": "2.93 / 4.00 / 3.43", "control signals": "1/9 (3.48)"}
{"CDR-H1": "GFTLNSYGIS", "CDR-H2": "VHYSDGRRTFYGDSVK", "CDR-H3": "GRAAGNMDS", "replicates, log10 nM": "4.43 / nd / nd", "control signals": "1/9 (3.53)"}
{"CDR-H1": "GFTLNSYGIS", "CDR-H2": "VIYSDGRRTFYGYSVK", "CDR-H3": "GQAAGTFDS", "replicates, log10 nM": "1.87 / 2.05 / 2.60", "control signals": "0/9"}
{"CDR-H1": "GFCLNSYGIS", "CDR-H2": "VIYSDGRRTFYGDEVK", "CDR-H3": "GPAAGTFDS", "replicates, log10 nM": "nd / nd / nd", "control signals": "1/9 (3.29)"}
{"CDR-H1": "YFTLNSYGIS", "CDR-H2": "VIYSDGRRTFYIDSVK", "CDR-H3": "GRAAGTFPS", "replicates, log10 nM": "nd / nd / nd", "control signals": "0/9"}
{"CDR-H1": "GFTHNSYGIS", "CDR-H2": "VIYSDGRRTFYGDSVH", "CDR-H3": "GCAAGTFDS", "replicates, log10 nM": "nd / nd / nd", "control signals": "0/9"}
{"CDR-H1": "GFTLNSYGIS", "CDR-H2": "VIYSDGRRTFYYDSVK", "CDR-H3": "GRAAGTMDP", "replicates, log10 nM": "3.99 / 3.55 / 2.96", "control signals": "2/9 (4.17)"}
{"CDR-H1": "GFTLNSYGIS", "CDR-H2": "VIYSDGRRTFTGDSVK", "CDR-H3": "GWADGTFDS", "replicates, log10 nM": "nd / 3.95 / nd", "control signals": "0/9"}
{"CDR-H1": "GFTLNSYGIS", "CDR-H2": "VIYSDCRRTFYGDQVK", "CDR-H3": "GRAVGTFDS", "replicates, log10 nM": "nd / nd / nd", "control signals": "0/9"}
{"CDR-H1": "GFTLISYGIS", "CDR-H2": "EIYSPGRRTFYGDSVK", "CDR-H3": "GRAAGTFDS", "replicates, log10 nM": "nd / nd / nd", "control signals": "1/9 (3.02)"}
{"CDR-H1": "GFTLNSYGAS", "CDR-H2": "VIYSDGRRTFYGDSVK", "CDR-H3": "GRAAGTLCS", "replicates, log10 nM": "nd / nd / nd", "control signals": "0/9"}
{"CDR-H1": "GFTLNSYGIS", "CDR-H2": "VIYSDGRRTFYGDSVK", "CDR-H3": "GRAAPKFRS", "replicates, log10 nM": "4.75 / 5.22 / 4.69", "control signals": "5/9 (4.59)"}
{"CDR-H1": "GFTLNSYGIS", "CDR-H2": "VHYGDGRRTFYGDSVL", "CDR-H3": "GRAAGTFDS", "replicates, log10 nM": "nd / nd / nd", "control signals": "1/9 (4.50)"}
{"CDR-H1": "GFTLNSQGIN", "CDR-H2": "VIYSDGRRTFNGDSVK", "CDR-H3": "GRAAGTFDS", "replicates, log10 nM": "nd / nd / nd", "control signals": "1/9 (3.59)"}
{"CDR-H1": "RDTLNSYGIS", "CDR-H2": "VIYSDGRRNFYGDSVK", "CDR-H3": "GRAAGTFDS", "replicates, log10 nM": "2.27 / 2.21 / 2.06", "control signals": "2/9 (4.48)"}
{"CDR-H1": "GFTLNSYGIS", "CDR-H2": "VIYPDGRRTFYGPSVK", "CDR-H3": "GPAAGTFDS", "replicates, log10 nM": "4.10 / nd / nd", "control signals": "2/9 (4.11)"}
{"CDR-H1": "DFTLNSYGAS", "CDR-H2": "VIYSDGRRTFYGDSVK", "CDR-H3": "GRAAGTFYS", "replicates, log10 nM": "nd / 3.97 / nd", "control signals": "4/9 (4.19)"}
{"CDR-H1": "GFTLNSYGYS", "CDR-H2": "VIYSDGRRTFYGDTVK", "CDR-H3": "TRAAGTFDS", "replicates, log10 nM": "nd / nd / nd", "control signals": "0/9"}
{"CDR-H1": "GFTLNMYGIS", "CDR-H2": "VIYSDLRRTFYGDSVK", "CDR-H3": "GRAAGTFDS", "replicates, log10 nM": "nd / 4.71 / nd", "control signals": "2/9 (3.96)"}
{"CDR-H1": "GFTPNSYGIS", "CDR-H2": "VDYSDGRRTFYGDSVK", "CDR-H3": "GRAAGWFDS", "replicates, log10 nM": "nd / 4.17 / nd", "control signals": "0/9"}
{"CDR-H1": "GDTLNCIGIS", "CDR-H2": "VIYSDGRRTFYGDSVK", "CDR-H3": "GRAAGTFDS", "replicates, log10 nM": "nd / nd / nd", "control signals": "1/9 (3.10)"}
{"CDR-H1": "GFTLNSYGDS", "CDR-H2": "VIYSDGRRTFYGDPVK", "CDR-H3": "YRAAGTFDS", "replicates, log10 nM": "3.56 / nd / 4.91", "control signals": "4/9 (4.50)"}
{"CDR-H1": "GFTYNSPGIS", "CDR-H2": "VIYSCGRRTFYGDSVK", "CDR-H3": "GRAAGTFDS", "replicates, log10 nM": "6.33 / nd / nd", "control signals": "6/9 (3.93)"}

From the list, the first 2 with no signal in any replicate:

{"CDR-H1": "GFTLYSYGIS", "CDR-H2": "VIYSDGRCTFYGDSVK", "CDR-H3": "GRAAGTFDD", "replicates, log10 nM": "nd / nd / nd", "control signals": "0/9"}
{"CDR-H1": "GFCLNSYGIS", "CDR-H2": "VIYSDGRRTFYGDEVK", "CDR-H3": "GPAAGTFDS", "replicates, log10 nM": "nd / nd / nd", "control signals": "1/9 (3.29)"}

Source: Engelhart et al. 2022 (doi:10.1038/s41597-022-01779-4), MIT Lincoln Laboratory and A-Alpha Bio; data file from the FLAb repository.